Test results: patent US11028072B2, “2,4-diamino-6-ethylpyrimidine derivatives with antimalarial activities against Plasmodium falciparum” (National Science and Technology Development Agency, priority 2015, dated 2021)

Chains of the proteins cited; added tags and fusions are not shown.
UniProt P00374, whole entry: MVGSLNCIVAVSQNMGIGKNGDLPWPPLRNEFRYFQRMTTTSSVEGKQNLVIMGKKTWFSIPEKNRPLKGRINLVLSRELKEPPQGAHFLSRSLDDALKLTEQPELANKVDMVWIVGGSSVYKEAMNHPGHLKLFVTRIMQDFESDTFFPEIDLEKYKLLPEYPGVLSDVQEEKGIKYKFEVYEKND

Molecular target: Human dihydrofolate reductase (hDHFR) (Homo sapiens, UniProt P00374)
Assay: Inhibition of human dihydrofolate reductase (Ki)
Assay type: biochemical
Conditions: read-out: Ki hDHFR; human DHFR; hydrochloride salts; tested form: HCl

## CCc1nc(N)nc(N)c1OCCCc1cn(Cc2cccc(C(=O)O)c2)nn1
  Ki: 94.5 nM
